Reference: article PMC3794980, “Identification of Conserved and HLA Promiscuous DENV3 T-Cell Epitopes” (PLoS Neglected Tropical Diseases, 2013)

Amino acid sequences for entries named in this document (tags omitted). Residues count along the entry.
UniProt P79483, 30-266: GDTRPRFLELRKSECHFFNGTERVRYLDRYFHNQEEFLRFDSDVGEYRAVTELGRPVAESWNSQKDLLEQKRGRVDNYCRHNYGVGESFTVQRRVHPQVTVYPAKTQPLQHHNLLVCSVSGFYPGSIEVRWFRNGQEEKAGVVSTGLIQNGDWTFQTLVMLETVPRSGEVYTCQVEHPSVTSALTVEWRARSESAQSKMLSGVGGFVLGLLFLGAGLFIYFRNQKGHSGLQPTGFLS
UniProt Q30154, 30-266: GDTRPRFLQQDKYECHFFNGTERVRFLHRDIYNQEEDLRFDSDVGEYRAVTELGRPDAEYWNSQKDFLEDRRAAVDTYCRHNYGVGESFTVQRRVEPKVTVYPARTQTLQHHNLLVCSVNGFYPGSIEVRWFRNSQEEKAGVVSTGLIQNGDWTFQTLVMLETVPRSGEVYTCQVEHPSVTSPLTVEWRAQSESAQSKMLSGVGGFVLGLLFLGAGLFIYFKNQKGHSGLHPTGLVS

Legend:
[1] = test system: HLA-DR2 (DRA1*0101/I-Eα; DRB1*1501/I-Eβ) transgenic mice; details: for Transgenic mice DR2 (ELISPOT): representative IFN-γ ELISPOT data, CD8-depleted splenocytes of HLA-DR2 TgM
[2] = test system: HLA-DR4 (HLA-DRA1*0101; -DRB1*0401) transgenic mice; details: representative IFN-γ ELISPOT data, CD8-depleted splenocytes of HLA-DR4 TgM
DRB1*0101 = DRB1*0101 (Homo sapiens, UniProt P01903+P01911, A100R/D57E/F55L/F60I/F76Y/I96L/L162R/M171V/P40L/Q125E/R42F/V115G/Y59C); test: biochemical; assay type: binding
DRB1*0301 = DRB1*0301 (Homo sapiens, UniProt P01903+P01911, A100K/A102G/A103R/A169T/F55Y/I96L/K41T/L162R/M171V/P40S/Q125H/Q178H/Q39Y/R42S/S66N/T106N/T262R/W38E/Y61H); test: biochemical; assay type: binding
DRB1*0405 = DRB1*0405 (Homo sapiens, UniProt P01903+P01911, A100R/A169T/D86S/F76Y/I96L/K127E/L162R/M171V/N62H/P40V/Q125Y/R42H/S133A/S149N/S66Y/V115G/V209L/W38E); test: biochemical; assay type: binding
DRB1*0701 = DRB1*0701 (Homo sapiens, UniProt P01903+P01911, A100R/A102G/A103Q/D57E/D86V/E43K/F76Y/K127E/L162R/M171V/P40G/Q125H/Q99D/R33Q/R42Y/R54Q/S133A/S66F/T210M/V115G/Y107V/Y59L/Y89S); test: biochemical; assay type: binding
DRB1*0802 = DRB1*0802 (Homo sapiens, UniProt P01903+P01911, A100R/A103L/A169T/F76Y/H45Y/I96F/K41T/L162R/M171V/P40S/Q125H/Q178H/Q39Y/Q99D/R218S/R42G/S66Y/V115G/W38E); test: biochemical; assay type: binding
DRB1*0901 = DRB1*0901 (Homo sapiens, UniProt P01903+P01911, A100R/A103E/D57H/D86V/F55Y/F60I/F76Y/I96F/K127E/L162R/M171V/P40D/Q125H/Q99R/R33Q/R42F/S133A/S66N/T210M/V115G/W38K/Y107V/Y59G/Y89S); test: biochemical; assay type: binding
DRB1*1501 = DRB1*1501 (Homo sapiens, UniProt P01903+P01911); test: biochemical; assay type: binding
DRB3*0101 = DRB3*0101 (Homo sapiens, UniProt P01903+P79483); test: biochemical; assay type: binding
DRB4*0101 = DRB4*0101 (Homo sapiens, UniProt P01903+P13762, G164S); test: biochemical; assay type: binding
DRB5*0101 = DRB5*0101 (Homo sapiens, UniProt P01903+Q30154); test: biochemical; assay type: binding
[3] = test system: HLA-A24 (A*2402) transgenic mice; test: IFN-γ ELISPOT of splenocytes from peptide-pool-immunized HLA-A24 transgenic mice; assay type: in vivo; details: for SFC±SD: IFN-γ ELISPOT, CD4-depleted splenocytes of HLA-A24 TgM immunized s.c. twice with peptide pool in Titermax gold, duplicate wells; for Functional avidity: minimum peptide concentration (10, 1, 0.1 µg/mL tested) that activated memory T-cells, HLA-A24 TgM
[4] = test system: HLA-DR3 (DRA1*0101; -DRB1*0301) transgenic mice; details: for Transgenic mice DR3 (ELISPOT): representative IFN-γ ELISPOT data, CD8-depleted splenocytes of HLA-DR3 TgM; for Transgenic mice DR3: IFN-γ ELISPOT of splenocytes, HLA-DR3 transgenic mice, printed as value+spread, '-' = no value, distinct from ND
[5] = target: HLA-DR DRB1*0101 (human (endogenous in EBV transformed cell lines)); test: radioligand binding
[6] = target: HLA-DR DRB1*0404 (human (endogenous in EBV transformed cell lines)); test: radioligand binding
[7] = target: HLA-DR DRB5*0101 (human (endogenous in EBV transformed cell lines)); test: radioligand binding
[8] = test system: 14 different HLA molecules (HLA class II); test: HLA class II binding assays, promiscuity over 14 HLA molecules (summary); details: HLA molecules among the 14 analyzed to which the peptide binds; binding affinity characterized by IC50 below 1000 nM
[9] = test system: HLA-A02 (A*0201) transgenic mice; test: IFN-γ ELISPOT of splenocytes from peptide-pool-immunized HLA-A02 transgenic mice; details: for SFC±SD: IFN-γ ELISPOT, CD4-depleted splenocytes of HLA-A02 TgM immunized s.c. twice with peptide pool in Titermax gold, duplicate wells; for Functional avidity: minimum peptide concentration (10, 1, 0.1 µg/mL tested) that activated memory T-cells, HLA-A02 TgM
[10] = target: HLA-DR DRB1*1101 (human (endogenous in EBV transformed cell lines)); test: radioligand binding
[11] = test system: HLA transgenic mice (A02, A24, B07, DR2, DR3 and DR4); test: Immunogenicity screen in six HLA transgenic mice strains (summary); assay type: in vivo; details: IFN-γ ELISPOT in six TgM strains; Negative = none
[12] = test system: HLA of the TgM (A02, A24, B07, DR2, DR3, DR4); test: HLA binding assays, summary of HLA affinity confirmed; set-up: species or system human; details: ND: non-determined
[13] = test system: HLA-B07 (B*0702) transgenic mice; test: IFN-γ ELISPOT of splenocytes from peptide-pool-immunized HLA-B07 transgenic mice; assay type: in vivo; details: for SFC±SD: IFN-γ ELISPOT, CD4-depleted splenocytes of HLA-B07 TgM immunized s.c. twice with peptide pool in Titermax gold, duplicate wells; for Functional avidity: minimum peptide concentration (10, 1, 0.1 µg/mL tested) that activated memory T-cells, HLA-B07 TgM
HLA-A2:Ig fusion protein = test: fluorescence polarisation

TWAYHGSYEVKATGSA [NS5_301–316]
Transgenic mice DR2 (ELISPOT) [1]: 161+20 SFC per 1 million cells
Transgenic mice DR4 (ELISPOT) [2]: 19+0 SFC per 1 million cells

CC[C@H](C)[C@H](NC(=O)[C@H](CC(C)C)NC(=O)[C@H](CC(=O)O)NC(=O)[C@H](CCCCN)NC(=O)[C@H](CCCCN)NC(=O)[C@@H](NC(=O)[C@H](CO)NC(=O)[C@H](C)NC(=O)[C@@H](N)Cc1c[nH]c2ccccc12)C(C)C)C(=O)N[C@@H](CO)C(=O)N[C@@H](Cc1ccc(O)cc1)C(=O)NCC(=O)NCC(=O)NCC(=O)N[C@@H](Cc1c[nH]c2ccccc12)C(=O)O [NS3 69-83]
IC50 (DRB1*0101): 3080 nM
IC50 (DRB1*0301): 4490 nM
IC50 (DRB1*0405): 9790 nM
IC50 (DRB1*0701): 2380 nM
IC50 (DRB1*0802): 2070 nM
IC50 (DRB1*0901): 5050 nM
IC50 (DRB1*1501): 30 nM
IC50 (DRB3*0101): 1430 nM
IC50 (DRB4*0101): 2050 nM
IC50 (DRB5*0101): 2210 nM

LNSKNTSMSFSCIAI [Env466–480, DENV3 Envelope 15-mer overlapping library peptide]
SFC±SD [3]: 31±0 SFC per 1 million cells
Functional avidity [3]: 1 µg/mL

WPKSHTLWSNGVLES [NS1_225–239]
Transgenic mice DR3 (ELISPOT) [4]: 129+3 SFC per 1 million cells

DENV3 NS1 181-195 (peptide)
IC50 [5]: 518 nM
IC50 [6]: 116 nM
IC50 [7]: 110 nM

TDISEMGANFKADRV [NS3_409–423]
Transgenic mice DR3 (ELISPOT) [4]: 114+17 SFC per 1 million cells
HLA class II binders [8]: DRB1*0301, DRB3*0101, DRB5*0101

IVSSVNMVSRLLLNRFT [NS5_227–243]
SFC±SD [9]: 44±11 SFC per 1 million cells
Functional avidity [9]: 10 µg/mL

MYFHRRDLRLASNAI [NS5_765–779]
Transgenic mice DR2 (ELISPOT) [1]: 75+16 SFC per 1 million cells
Transgenic mice DR4 (ELISPOT) [2]: 531+10 SFC per 1 million cells

KKVIQLSRKTFDTEY [NS3_381–395]
Transgenic mice DR3 (ELISPOT) [4]: 23+1 SFC per 1 million cells

VERLKRMAISGDDCVVK [NS5_652–668]
Transgenic mice DR3 (ELISPOT) [4]: 255+22 SFC per 1 million cells

IFMTATPPGTADAFP [NS3_313–327]
HLA class II binders [8]: DRB1*0101, DRB1*0401, DRB1*0701, DRB1*0802, DRB4*0101

DENV3 NS3 237-251 (peptide)
IC50 [5]: 110 nM

VMDIISRKDQRGSGQVG [NS5_588–604]
HLA class II binders [8]: DRB1*0301, DRB1*1101

ANAIFKLTYQNKVVKVQ [NS5_564–580]
Transgenic mice DR2 (ELISPOT) [1]: 849+8 SFC per 1 million cells

DENV3 NS5 193-209 (peptide)
IC50 [10]: 110 nM

HTLWSNGVLESDMII [NS1_229–243]
Transgenic mice DR3 (ELISPOT) [4]: 205+12 SFC per 1 million cells
Transgenic mice DR4 (ELISPOT) [2]: 214+15 SFC per 1 million cells
HLA class II binders [8]: DRB1*0301, DRB1*0401, DRB3*0101

KKRNLTIMDLHPGSG [NS3_185–199]
TGM (HLA transgenic mice in which the peptide was immunogenic) [11]: DR4
Binding assay (HLA to which affinity was found) [12]: DR4
Transgenic mice DR4 (ELISPOT) [2]: 39+13 SFC per 1 million cells
HLA class II binders [8]: DRB1*0101, DR, B1*0301, DRB1*0401, DRB1*0405, DRB1*0802, DRB1*1101, DRB4*0101, DRB5*0101

DENPYKTWAYHGSYEVK [NS5_295–311]
Transgenic mice DR2 (ELISPOT) [1]: 126+10 SFC per 1 million cells

TEYQKTKLNDWDFVV [NS3_393–407]
SFC±SD [9]: 20±5 SFC per 1 million cells
Functional avidity [9]: 0.1 µg/mL

RTLGRNKRPRLCTREEF [NS5_382–398, DENV3 NS5 17-mer overlapping library peptide]
SFC±SD [13]: 501±19 SFC per 1 million cells
Functional avidity [13]: 0.1 µg/mL

GATTETPTWNRKELL [Env221–235, DENV3 Envelope 15-mer overlapping library peptide]
SFC±SD [13]: 192±2 SFC per 1 million cells
Functional avidity [13]: 10 µg/mL

DENV3 NS3_(399–407) (peptide)
IC50 (HLA-A2:Ig fusion protein): 110 nM

LNSKNTSMSFSCIAI [Envelope 466-480]
Transgenic mice DR2 ([1]; IFN-γ ELISPOT of splenocytes, HLA-DR2 transgenic mice, printed as value+spread, '-' = no value, distinct from ND): 33+6
Transgenic mice DR3 [4]: 31+2

HTQTAGPWHLGKLEL [NS1_261–275]
Transgenic mice DR3 (ELISPOT) [4]: 337+0 SFC per 1 million cells
HLA class II binders [8]: DRB1*0301, DRB4*0101

AYTALFSGVSWVMKI [Env441–455, DENV3 Envelope 15-mer overlapping library peptide]
SFC±SD [3]: 18±4 SFC per 1 million cells
Functional avidity [3]: 10 µg/mL

CSCC[C@H](NC(=O)[C@H](CC(C)C)NC(=O)[C@H](CCCNC(=N)N)NC(=O)[C@@H](N)Cc1c[nH]cn1)C(=O)N[C@@H](CO)C(=O)N[C@@H](C)C(=O)N[C@@H](C)C(=O)N[C@H](C(=O)N[C@@H](CCCCN)C(=O)N[C@@H](CC(=O)O)C(=O)N[C@@H](CCC(=O)O)C(=O)N[C@@H](CCCNC(=N)N)C(=O)N[C@@H](C)C(=O)N[C@H](C(=O)N[C@@H](Cc1c[nH]cn1)C(=O)O)C(C)C)C(C)C [NS1 181-195]
Transgenic mice DR3 [4]: 119+14

TPTWNRKELLVTFKN [Env226–240, DENV3 Envelope 15-mer overlapping library peptide]
SFC±SD [13]: 456±7 SFC per 1 million cells
Functional avidity [13]: 0.1 µg/mL

ASIAARGYISTRVGM [NS3_293–307]
Transgenic mice DR2 (ELISPOT) [1]: 27+4 SFC per 1 million cells
